Experimental findings from ChEMBL document CHEMBL1221216, “Chemical probes for histone-modifying enzymes” (Nat Chem Biol, 2008) are described below.

This test has as its target T1, Histone-lysine N-methyltransferase EHMT1 (Homo sapiens, UniProt Q9H9B1).
T1 sequence (Q9H9B1 whole entry): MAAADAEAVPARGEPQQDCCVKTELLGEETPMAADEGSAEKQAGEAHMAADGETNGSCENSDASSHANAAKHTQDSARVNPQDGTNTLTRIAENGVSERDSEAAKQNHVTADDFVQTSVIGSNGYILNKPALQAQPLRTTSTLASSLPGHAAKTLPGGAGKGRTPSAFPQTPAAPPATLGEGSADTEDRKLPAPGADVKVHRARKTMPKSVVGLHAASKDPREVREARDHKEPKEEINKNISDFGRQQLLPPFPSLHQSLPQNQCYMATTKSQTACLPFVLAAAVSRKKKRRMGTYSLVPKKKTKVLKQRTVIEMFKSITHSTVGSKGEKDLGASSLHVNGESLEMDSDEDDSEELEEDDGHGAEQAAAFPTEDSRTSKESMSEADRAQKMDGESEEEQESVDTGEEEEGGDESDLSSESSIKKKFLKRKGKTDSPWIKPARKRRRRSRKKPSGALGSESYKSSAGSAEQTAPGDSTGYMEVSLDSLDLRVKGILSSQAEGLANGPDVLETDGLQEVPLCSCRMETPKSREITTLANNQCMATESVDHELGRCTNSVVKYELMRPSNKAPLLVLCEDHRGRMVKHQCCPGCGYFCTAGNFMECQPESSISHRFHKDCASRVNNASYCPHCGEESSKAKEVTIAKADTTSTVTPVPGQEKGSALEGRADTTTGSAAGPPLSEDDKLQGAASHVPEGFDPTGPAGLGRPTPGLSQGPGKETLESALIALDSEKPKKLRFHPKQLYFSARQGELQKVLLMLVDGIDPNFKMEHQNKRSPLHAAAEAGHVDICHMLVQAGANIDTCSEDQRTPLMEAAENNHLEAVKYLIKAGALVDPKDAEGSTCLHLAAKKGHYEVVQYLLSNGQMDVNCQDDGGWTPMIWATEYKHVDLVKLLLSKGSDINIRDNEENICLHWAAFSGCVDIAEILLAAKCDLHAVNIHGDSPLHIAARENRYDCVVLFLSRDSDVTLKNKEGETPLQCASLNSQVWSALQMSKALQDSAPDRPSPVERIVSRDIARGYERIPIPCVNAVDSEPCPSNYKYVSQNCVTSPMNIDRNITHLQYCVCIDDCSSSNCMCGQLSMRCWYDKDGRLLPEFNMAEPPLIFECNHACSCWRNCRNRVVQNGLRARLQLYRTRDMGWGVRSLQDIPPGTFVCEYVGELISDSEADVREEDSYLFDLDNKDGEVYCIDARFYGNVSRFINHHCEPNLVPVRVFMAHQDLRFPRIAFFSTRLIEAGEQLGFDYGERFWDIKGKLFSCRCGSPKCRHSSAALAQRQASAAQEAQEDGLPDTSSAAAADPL
As to the kind of experiment: Inhibition of Histone H3 lysine 9 of GLP methyltransferase.

Usually IC50 stands for the point on the concentration scale where inhibition reaches its midpoint. Read a low IC50 as inhibition by little substance. As for `COc1cc2nc(N3CCCN(C)CC3)nc(NC3CCN(Cc4ccccc4)CC3)c2cc1OC`, the half-inhibitory concentration (IC50) was determined as 38 µM.
